In US20090088432A1, “Thiazolinones and Oxazolinones and their Use as Ptp1b Inhibitors” (priority 2005, published 2009):

Assays:
[1] = tested on: high fat fed C57BL/6 male mice; assay: Fasted and non-fasted blood glucose in diet induced obese mice; conditions: 200 mg/kg, change from baseline (day 0), vs. vehicle control
[2] = tested on: high fat fed C57BL/6 male mice; assay: Intraperitoneal insulin tolerance test (ITT) in diet induced obese mice; conditions: 200 mg/kg, i.p., end of 4 days of treatment; glucose at 15, 30, 60 and 120 min post insulin challenge, vs. vehicle

N-{2-[4-(5-Biphenyl-4-ylmethlene-4-oxo-4,5-dihydro-thiazol-2-ylamino)-phenyl]-acetyl}-4-methyl-benzenesulfonamide sodium salt
percent change in non-fasted blood glucose ([1]; i.p. for 4 days, day 4, one hour post dosing): significant improvement
percent change in fasted blood glucose ([1]; i.p., 4 hr fasted, day 2 post dosing): significant improvement
AUC blood glucose post insulin tolerance test (insulin sensitivity) [2]: improved insulin sensitivity
